Results published in ChEMBL document CHEMBL4024706 (Eur J Med Chem, 2017).

The chains behind the UniProt entries cited, without tags or fusion partners. Where a name states a change or a piece, a line headed by the entry shows the natural chain unless it says otherwise.
UniProt Q06187: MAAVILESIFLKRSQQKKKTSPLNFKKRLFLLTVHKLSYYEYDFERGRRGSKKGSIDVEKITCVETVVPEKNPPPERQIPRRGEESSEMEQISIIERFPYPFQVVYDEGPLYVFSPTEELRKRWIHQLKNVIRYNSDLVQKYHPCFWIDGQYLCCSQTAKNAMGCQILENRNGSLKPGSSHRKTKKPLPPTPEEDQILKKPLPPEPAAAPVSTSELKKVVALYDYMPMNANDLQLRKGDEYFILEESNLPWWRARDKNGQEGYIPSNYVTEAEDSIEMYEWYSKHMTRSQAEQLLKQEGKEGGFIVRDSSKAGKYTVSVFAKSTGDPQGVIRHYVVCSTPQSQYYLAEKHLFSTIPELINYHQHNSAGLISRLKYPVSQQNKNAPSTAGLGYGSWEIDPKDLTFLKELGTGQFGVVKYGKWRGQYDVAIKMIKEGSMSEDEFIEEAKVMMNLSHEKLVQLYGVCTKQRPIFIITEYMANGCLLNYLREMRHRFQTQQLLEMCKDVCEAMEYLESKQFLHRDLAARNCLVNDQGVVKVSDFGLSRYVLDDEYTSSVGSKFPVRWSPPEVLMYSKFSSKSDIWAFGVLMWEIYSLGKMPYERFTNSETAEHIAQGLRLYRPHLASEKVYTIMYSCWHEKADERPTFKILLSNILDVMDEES

What was measured:
[1] = target: T1, Tyrosine-protein kinase BTK (Homo sapiens, UniProt Q06187); experiment: Reversible inhibition of full length recombinant human N-terminal His tagged […] expressed in baculovirus infected Sf9 insect cells using poly (Glu,Tyr)4:1 as substrate pretreated for 2 to 60 mins followed by substrate addition after 1 hr by ADP-Glo luminescence assay
[2] = target: T1, Tyrosine-protein kinase BTK; experiment: Inhibition of full length recombinant human N-terminal His tagged […] expressed in baculovirus infected Sf9 insect cells using poly (Glu,Tyr)4:1 as substrate pretreated for 60 mins followed by substrate addition after 1 hr by ADP-Glo luminescence assay

Row | Structure (SMILES) | Ki [1] [nM] | IC50 [2] [nM]
1 | C=CC(=O)N1CCc2ccc(-n3c(=O)ccc4cnc5ccc(-c6cnn(C)c6)cc5c43)cc21 | 14.2 | 12
2 | C=CC(=O)Nc1cccc(Nc2nc(Nc3ccc(Oc4ccnc(C(=O)NC)c4)cc3)ncc2F)c1 | 209 | 9.5
